From patent publication US12274710B2, “Compound for regulating body weight imbalance, composition thereof and application thereof” (GUANGZHOU CENTURY CLINICAL RESEARCH CO., LTD, priority 2019, dated 2025)

System: persons suffering from weight imbalance
Conditions: A person

## dosmalfate [compound 3]
1 g twice a day, two months
  Adverse reactions: No adverse reactions
1.5 g three times a day, three months
  Adverse reactions: only mild constipation

Like-named read-outs stand apart in the source and are kept apart here.
